Drawing on PubChem BioAssay AID743416 (Broad Institute, 2014), this text covers activity change, negative = cytotoxicity for one compound.

A short description of this assay: toxicity toward HepG2 liver cells – cell-based, plate reader, cherry-pick, antagonist series, cytotoxicity control, dose response (AID 743416).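 Note: 0% = neutral control wells and -100% = positive control wells.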 As to conditions: at 26 µM (top of the series).

Molecules are shown by their SMILES. The entries are a selection whose mix differs from that of the whole data set. Results with a measured potency or affinity are listed apart. Calls of active or inactive are those of the source. The rule behind the calls is not given here.

In the case of `COc1cccc(C(c2nnnn2C2CCCCC2)N2CCC(n3c(=O)[nH]c4ccccc43)CC2)c1OC` (stereo unspecified), the activity change, negative = cytotoxicity was inactive: -5.22%.
